Where two headings read alike, the source gives them in different places. Marks after values point to notes of the source that are not given here.
System: human keratinocytes
Details: human keratinocytes in culture
Protocol: I-Measurement of the Amount of Haluronic Acid Bound to the Surface of Keratinocytes
The following steps are performed:
15,000 human keratinocytes are inoculated in culture wells (96-well plates) in a K-SFM medium (Gibco).
2—Production of Confluent Cultures:
Incubation of the cultures for 72 hours at 37° C. under a humidity-saturated atmosphere, with 5% CO2, with renewal of the culture medium after 48 h.
3—Binding of Hyaluronic Acid:
Incubation of the cells for 4 hours at 4° C. with hyaluronic acid covalently bonded to a fluorochrome, […] (HA-FA), synthesized in the laboratory according to the technique described in “Preparation and properties of fluoresceine-labelled hyaluronate; carbohydrate research, 1975, Vol. 44, pp. 251-257”, prepared in K-SFM containing 0.2% sodium azide.
4—Evaluation of the Activity of the Test Products:
The products for which it is desired to evaluate the action on the amount of HA-FA bound by keratinocytes are added to the incubation medium at the start of incubation. Controls are carried out in the absence of the products to be evaluated and in the presence of their excipient which was used to dissolve them.
5—Nonspecific Binding of HA-FA.
In order to determine the nonspecific labelling, the same experimental conditions as in step 3 are rigorously used, but with the addition of 200 times more hyaluronic acid not labelled with a fluorochrome.
6—Fluorescence Quantification:
After the HA-FA binding medium has been removed, two rinses with PBS are carried out, after which the fluorescence bound to the keratinocytes is measured at an excitation wavelength λex 485 nm and an emission wavelength λem=538 nm.
7—Expressing the Results:
The results are expressed in fluorescence units (“specific fluorescence”), with the nonspecific fluorescence being deducted (see 5-).
To do this, the fluorescence values measured are reduced to the cellular DNA content, carried out according to the DAPI method (see III-).

Substance	Fluorescence measured (FU) Mean (Table II, 5 mM)	Fluorescence measured (FU) Mean (Table II, 10 mM)	Fluorescence measured (FU) Mean (Example 5 table, 5 mM)	Fluorescence measured (FU) Mean (Example 5 table, 10 mM)
calcium gluconate	310* FU	2,745* FU		
manganese chloride [MnCl2]			1,593* FU	1,524* FU

Reference: patent publication US20040043047A1, “Cosmetic or dermatological compositions containing at least one substance for increasing the functionality and/or expression of the CD44 membrane receptors of skin cells” (priority 1999, published 2004)
